In article PMC7723054 one finds binding signal data, which are given here for 26 molecules.

Sequences and labels used below:
T1: LIN28A (human?, UniProt Q9H9Z2 1-209)
T1 sequence: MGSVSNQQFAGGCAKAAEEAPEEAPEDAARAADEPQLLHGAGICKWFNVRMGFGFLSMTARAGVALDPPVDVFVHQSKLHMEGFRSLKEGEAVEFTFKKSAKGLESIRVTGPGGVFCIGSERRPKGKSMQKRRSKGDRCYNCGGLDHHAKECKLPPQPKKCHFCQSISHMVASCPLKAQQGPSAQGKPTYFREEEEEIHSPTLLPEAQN

T2: CIRBP (Homo sapiens, UniProt Q14011 1-172)
T2 sequence: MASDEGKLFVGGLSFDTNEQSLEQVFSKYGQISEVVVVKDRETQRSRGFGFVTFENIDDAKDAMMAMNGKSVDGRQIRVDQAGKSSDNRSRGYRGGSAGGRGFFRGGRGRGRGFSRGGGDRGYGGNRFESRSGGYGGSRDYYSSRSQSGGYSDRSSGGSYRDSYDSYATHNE

T3: DHX36 (Homo sapiens, UniProt Q9H2U1 1-1008)
T3 sequence: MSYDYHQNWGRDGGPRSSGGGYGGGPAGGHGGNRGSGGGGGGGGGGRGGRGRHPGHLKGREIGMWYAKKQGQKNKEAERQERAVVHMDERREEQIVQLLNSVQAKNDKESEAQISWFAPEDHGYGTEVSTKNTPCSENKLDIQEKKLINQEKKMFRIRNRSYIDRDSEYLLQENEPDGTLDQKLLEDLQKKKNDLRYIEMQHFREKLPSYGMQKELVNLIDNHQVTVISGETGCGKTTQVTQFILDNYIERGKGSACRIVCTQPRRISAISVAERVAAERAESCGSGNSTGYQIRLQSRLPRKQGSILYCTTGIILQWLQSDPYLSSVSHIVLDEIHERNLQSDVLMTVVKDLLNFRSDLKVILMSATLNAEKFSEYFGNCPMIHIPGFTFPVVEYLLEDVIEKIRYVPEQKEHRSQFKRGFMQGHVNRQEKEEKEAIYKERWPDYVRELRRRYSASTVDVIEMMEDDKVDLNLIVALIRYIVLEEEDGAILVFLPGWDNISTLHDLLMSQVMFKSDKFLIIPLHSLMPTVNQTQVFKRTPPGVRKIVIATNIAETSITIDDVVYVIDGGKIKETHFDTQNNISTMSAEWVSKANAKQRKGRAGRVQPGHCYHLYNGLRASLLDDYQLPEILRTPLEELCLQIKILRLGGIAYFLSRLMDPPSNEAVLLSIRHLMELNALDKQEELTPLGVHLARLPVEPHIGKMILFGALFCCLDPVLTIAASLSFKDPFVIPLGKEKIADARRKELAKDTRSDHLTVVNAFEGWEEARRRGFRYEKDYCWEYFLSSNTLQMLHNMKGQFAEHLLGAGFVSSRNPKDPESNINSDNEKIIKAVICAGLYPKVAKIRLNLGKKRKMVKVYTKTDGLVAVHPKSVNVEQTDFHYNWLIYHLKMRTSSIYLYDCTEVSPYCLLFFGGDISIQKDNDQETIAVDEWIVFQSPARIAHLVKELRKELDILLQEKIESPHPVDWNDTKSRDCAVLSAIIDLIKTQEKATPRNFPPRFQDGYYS

B1: hsa-mir-590 (structured_RNA)
RNA: GGGACAGUAUCCGAGCGUUCUGCCACUGGGUGUACGAAGUUUCAGCAGUGCAGUAUGGUGAAGUCAAUCUGUAAUGCUGAAGCUUCGUGCAC
B2: hsa-mir-548b (structured_RNA)
RNA: GGGACCGCGCAAUGUGAUAUUUGGCUACGGUGUACGAAGUUUCAGCUUGGCCUUUAUUUUCAAUGGCAAGGCUGAAGCUUCGUGCAC
B3: hsa-mir-26a-2 (structured_RNA)
RNA: GGGAAAAGGGGCAGCGCAGCAAUAAAACGGUGUACGAAGUUUCAGCUAGGCUGUUUCCAUCUGUGAGGCCUAGCUGAAGCUUCGUGCAC
B4: hsa-mir-4683 (structured_RNA)
RNA: GGGACACUGAACCGUAAGUUAUUCAGAGGGUGUACGAAGUUUCAGCUGCACCAGUUCUGGCCGCUGGUGGAGCUGAAGCUUCGUGCAC
B5: hsa-mir-7108 (structured_RNA)
RNA: GGGACGGCGAAGACCGCAAAUCUGUAUUGGUGUACGAAGUUUCAGCGGGUGGGCGGGGGCGGCCGGUGGGAACCCCGCCCCGCCCCGCGCCCGCACUCACCCGCUGAAGCUUCGUGCAC
B6: hsa-mir-3665 (structured_RNA)
RNA: GGGAAGAUCGGACGGCUGUGUACCGAAGGGUGUACGAAGUUUCAGCGCGGCCGCGCUGGCCGCUGCUGAAGCUUCGUGCAC
B7: hsa-mir-4447 (structured_RNA)
RNA: GGGAAGAUUAUAGUCAUACGUACCCGAGGGUGUACGAAGUUUCAGCCAUCAUUUGCACUACUGAUACUUGGGGUCAGAUAAUUGUUUGUGGUGGCUGAAGCUUCGUGCAC
B8: hsa-mir-518f (structured_RNA)
RNA: GGGAAACGAGAGUUACGUUCAUGCUAUCGGUGUACGAAGUUUCAGCUUUCUCUUGUCUAAAAGAAAAGAAAGCUGAAGCUUCGUGCAC
B9: hsa-mir-4263 (structured_RNA)
RNA: GGGAGUAAGUUGACAGCGUGCAAUACCCGGUGUACGAAGUUUCAGCGGAGAUUGGAGUGGCCAGUGUUCCUAAACAAUUCGCUGAAGCUUCGUGCAC
B10: hsa-mir-3675 (structured_RNA)
RNA: GGGACGUGAACCCAGGUGCCGUGUAAAAGGUGUACGAAGUUUCAGCGAUUUCUAUGAGAACAUCGCUGAAGCUUCGUGCAC
B11: hsa-mir-409 (structured_RNA)
RNA: GGGAAGAUUCCAUACAGGAUGUGGGACGGGUGUACGAAGUUUCAGCUUUGCAUCUGGACGACGAAUGCUGAAGCUUCGUGCAC
B12: NEAT1_ParasoR_ID44 (structured_RNA)
RNA: GGGACCCAACGUGCCCAGGUACAUCAUUGGUGUACGAAGUUUCAGCCCUUUUUCUGGGCUGAAGCUUCGUGCAC
B13: hsa-mir-2110 (structured_RNA)
RNA: GGGAUGCGUGCAGGUUUUCGGUAAAGCAGGUGUACGAAGUUUCAGCAGUGAGGCGUCGGCUGUGUUUCUGCUGAAGCUUCGUGCAC
B14: hsa-mir-2116 (structured_RNA)
RNA: GGGAAUAGAUCGUUUUACUACCUGGGCGGGUGUACGAAGUUUCAGCGAGGUCUUCCCAUGCUAAGAAGUCCUCGCUGAAGCUUCGUGCAC
B15: hsa-mir-4711 (structured_RNA)
RNA: GGGAAAUAGCGAGCCACGUCAAACGGAAGGUGUACGAAGUUUCAGCCAUGAGCCCUUUGGAAAGGUCUCGUGGCUGAAGCUUCGUGCAC
B16: hsa-mir-4781 (structured_RNA)
RNA: GGGACGAGGUACCAAGCGCCUACUACCUGGUGUACGAAGUUUCAGCUAUUGGGCCAAUUCCCCCAAUGGCUGAAGCUUCGUGCAC
B17: hsa-mir-524 (structured_RNA)
RNA: GGGAACAAGACCUCCCCAGACCUCUAGUGGUGUACGAAGUUUCAGCUUUCUCUUGUCCAAAGGAAAAGAAGGCUGAAGCUUCGUGCAC
B18: hsa-mir-519a-1_519a-2 (structured_RNA)
RNA: GGGAAGCCAGACCGGUGAAUUUGGUGGAGGUGUACGAAGUUUCAGCCUUUCUGUUGUCUGAAAGAAAGGAAAGGCUGAAGCUUCGUGCAC
B19: hsa-mir-6873 (structured_RNA)
RNA: GGGAAACGUCCCAACAGGAGUCCUAGCAGGUGUACGAAGUUUCAGCGCAAUCAGGACUGGGUCAUUCGCUGAAGCUUCGUGCAC
B20: hsa-mir-548ar (structured_RNA)
RNA: GGGAAGAAUUAUGCGGGCAUUGCUCUACGGUGUACGAAGUUUCAGCUUUGCUGUUGAACGUAGUGGUAAGCUGAAGCUUCGUGCAC
B21: hsa-mir-4709 (structured_RNA)
RNA: GGGAGACUUACCAGCGCCGAGAAUCAGUGGUGUACGAAGUUUCAGCCCAAUGGUAUCCAGUGAUUCGUUGAGCUGAAGCUUCGUGCAC
B22: NEAT1_ParasoR_ID35 (structured_RNA)
RNA: GGGAAGAUACGCCGCUACGGAAACAUUUGGUGUACGAAGUUUCAGCGCACCUUUGCUGGUGCGCUGAAGCUUCGUGCAC
B23: hsa-mir-5680 (structured_RNA)
RNA: GGGAAUUGGCUAUGAGAGAGCAACACAUGGUGUACGAAGUUUCAGCUCCCUUCCUGGACACACAGGAGGAGAGCUGAAGCUUCGUGCAC
B24: hsa-mir-208a (structured_RNA)
RNA: GGGACUCUCGGAGUAAUGAGGUUUCACGGGUGUACGAAGUUUCAGCUUAUACCUGAUGCUCACGUAUAAGCUGAAGCUUCGUGCAC
B25: hsa-mir-4256 (structured_RNA)
RNA: GGGACCGGAGAACGGUACAAUAACGGUUGGUGUACGAAGUUUCAGCAGGUCUCCUGGCAUGCUGAAGCUUCGUGCAC
B26: hsa-mir-136 (structured_RNA)
RNA: GGGAAAUACGACGAACACGACAAACGCUGGUGUACGAAGUUUCAGCGAUGGAUUCUUAUGCUCCAUCGCUGAAGCUUCGUGCAC

The list shows a part of the results.

The first assay concerns the target T1, LIN28A. In words: FOREST: bead pull-down of RNA structure library v1, barcode microarray; U1A/LIN28A: 20 mM HEPES pH 7.5, 80 mM KCl, 20 mM NaCl, 10% glycerol, 2 mM DTT, 0.1 ug/uL BSA, 4 C; BG4/CIRBP/DHX36: 10 mM Tris-HCl pH 7.5, 100 mM KCl (or LiCl),; high values mean tight binding.
In the case of B1, the binding signal was -0.362 z-score.

As to B2, the binding signal was -0.399 z-score.

Turning to B3, the binding signal is -0.378 z-score.

For B4, the binding signal was -0.39 z-score.

With B5, the binding signal was -0.377 z-score.

On to B6, for which the binding signal was -0.403 z-score.

B7: the binding signal was -0.387 z-score.

On to B8, for which the binding signal is -0.36 z-score.

Turning to B9, the binding signal is -0.363 z-score.

As to B10, the binding signal was -0.365 z-score.

As to B11, the binding signal is -0.4 z-score.

On to B12, for which the binding signal is -0.386 z-score.

On to B13, for which the binding signal is -0.407 z-score.

B14: the binding signal is -0.378 z-score.

B15: the binding signal is -0.383 z-score.

For B16, the binding signal is -0.399 z-score.

In the case of B17, the binding signal was -0.382 z-score.

On to B18, for which the binding signal was -0.36 z-score.

For the molecule B19, the binding signal is -0.382 z-score.

Take B20: the binding signal was -0.385 z-score.

With B21, the binding signal was -0.371 z-score.

Turning to B22, the binding signal was -0.402 z-score.

Consider B23, for which the binding signal is -0.391 z-score.

On to B24, for which the binding signal was -0.362 z-score.

Regarding B25, the binding signal is -0.364 z-score.

Take B26: the binding signal was -0.384 z-score.

A further assay concerns the target T2, CIRBP. The assay is described as above.
In the case of B1, the binding signal came out at 0.118 z-score.

Take B2: the binding signal is -0.53 z-score.

B3 showed a binding signal of 0.363 z-score.

Take B4: the binding signal is -0.469 z-score.

As for B5, the binding signal was -0.135 z-score.

In the case of B6, the binding signal is -0.509 z-score.

B7 had a binding signal of 0.935 z-score.

As to B8, the binding signal worked out at 1.19 z-score.

Consider B9, for which the binding signal is -0.804 z-score.

For B10, the binding signal was determined as 1.12 z-score.

B11 returned a binding signal of 0.0141 z-score.

Consider B12, for which the binding signal was -2.14 z-score.

In the case of B13, the binding signal is -0.266 z-score.

With B14, the binding signal is -1.47 z-score.

In the case of B15, the binding signal is 1.95 z-score.

For the molecule B16, the binding signal was -1.2 z-score.

Regarding B17, the binding signal stood at 0.917 z-score.

Consider B18, for which the binding signal is -1.61 z-score.

B19 gave a binding signal of 0.508 z-score.

With B20, the binding signal is -0.757 z-score.

Take B21: the binding signal was -0.349 z-score.

Regarding B22, the binding signal was -0.629 z-score.

Turning to B23, the binding signal was -0.0354 z-score.

With B24, the binding signal was 0.679 z-score.

As for B25, the binding signal came out at 0.48 z-score.

As to B26, the binding signal is -1.75 z-score.

In a further assay the target is T3, DHX36. The assay is described as above.
Turning to B1, the binding signal is 0.0247 z-score.

On to B2, for which the binding signal was -0.156 z-score.

For the molecule B3, the binding signal was -0.0264 z-score.

For the molecule B4, the binding signal was 0.721 z-score.

B5 showed a binding signal of 4.23 z-score.

Consider B6, for which the binding signal worked out at 0.368 z-score.

In the case of B7, the binding signal is -0.142 z-score.

B8: the binding signal was -1.2 z-score.

On to B9, for which the binding signal worked out at 0.441 z-score.

The molecule B10 showed a binding signal of 0.391 z-score.

Molecule B11 had a binding signal of 0.662 z-score.

Turning to B12, the binding signal was -0.637 z-score.

As for B13, the binding signal is -0.279 z-score.

As to B14, the binding signal is -0.722 z-score.

In turn, B15 showed a binding signal of 0.444 z-score.

For the molecule B16, the binding signal was -0.163 z-score.

Consider B17, for which the binding signal was -0.394 z-score.

Regarding B18, the binding signal is -0.656 z-score.

With B19, the binding signal is -0.481 z-score.

Turning to B20, the binding signal is -0.495 z-score.

B21 returned a binding signal of 0.439 z-score.

On to B22, for which the binding signal is -0.768 z-score.

Take B23: the binding signal stood at 0.348 z-score.

For B24, the binding signal is -0.289 z-score.

B25: the binding signal is -0.17 z-score.

Regarding B26, the binding signal came to 0.0538 z-score.
